Test [1] addresses human Nectin-3(C-6His), Novoprotein Cat# C630 (human, UniProt Q9NQS3 58-404, limits assumed). In words: ELISA, plate coated with 1 µg/ml human Nectin-3(C-6His), absorbance at 450 nm. The text names only a goat anti-rabbit HRP secondary antibody. On the procedure:
Plates were coated with 1 µg/ml of the antigens and incubated at 4° C. overnight; next, antibodies serially diluted were added into the plates. Finally, the HRP-labeled secondary antibody was added, and absorbance at 450 nm was detected. The results are shown in panels 6A, 6B, 6C and 6D in FIG. 6.
(In general: ELISA stands for enzyme-linked immunosorbent assay.)

In test [2] the target is T1, His-tagged human NECTIN4 (human, UniProt Q96NY8 32-349).
T1 construct: Antigen of the BIAcore assay; also called antigen; recombinant NECTIN4 protein; not shown: His tag
T1 sequence: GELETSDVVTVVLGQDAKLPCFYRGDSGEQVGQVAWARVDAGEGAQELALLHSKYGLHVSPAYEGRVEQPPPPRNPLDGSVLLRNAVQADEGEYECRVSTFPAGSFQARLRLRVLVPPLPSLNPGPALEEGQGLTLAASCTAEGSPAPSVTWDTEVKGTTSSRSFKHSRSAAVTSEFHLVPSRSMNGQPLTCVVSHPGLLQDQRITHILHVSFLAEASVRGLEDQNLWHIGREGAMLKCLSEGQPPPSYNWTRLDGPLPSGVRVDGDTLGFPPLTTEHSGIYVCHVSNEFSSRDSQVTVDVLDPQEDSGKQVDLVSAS
In words: SPR (BIAcore S200), antigen on CAP chip, antibody as analyte, 1:1 fit. On the procedure: Interactions between the antibodies and the antigen were measured using a BIAcore instrument S200 from GE. Referring to the instructions provided in Biotin Capture Kit from GE Healthcare, the analytical channel and the control sample channel on CAP sensor chip were first coupled with antigen i.e. His-tagged human NECTIN4, then samples containing antibodies (diluted 3-fold from an initial concentration of 20 nM respectively and solutions of each antibody of 8 concentrations were obtained totally, and the concentration 0.741 nM was set to be repeated) were allowed to flow through both the analytical channel and the sample channel, and the photoreactions upon antibody-antigen binding were measured. Association constant Kon and dissociation constant Koff and affinity constant KD of each antibody were finally obtained by instrument software fitting (1:1 binding mode) analysis.
For orientation: SPR reads the build-up and loss of mass on a sensor chip optically.

Test [3] deals with T2, human Nectin-4 (human, UniProt Q96NY8 32-510).
T2 sequence (looked up): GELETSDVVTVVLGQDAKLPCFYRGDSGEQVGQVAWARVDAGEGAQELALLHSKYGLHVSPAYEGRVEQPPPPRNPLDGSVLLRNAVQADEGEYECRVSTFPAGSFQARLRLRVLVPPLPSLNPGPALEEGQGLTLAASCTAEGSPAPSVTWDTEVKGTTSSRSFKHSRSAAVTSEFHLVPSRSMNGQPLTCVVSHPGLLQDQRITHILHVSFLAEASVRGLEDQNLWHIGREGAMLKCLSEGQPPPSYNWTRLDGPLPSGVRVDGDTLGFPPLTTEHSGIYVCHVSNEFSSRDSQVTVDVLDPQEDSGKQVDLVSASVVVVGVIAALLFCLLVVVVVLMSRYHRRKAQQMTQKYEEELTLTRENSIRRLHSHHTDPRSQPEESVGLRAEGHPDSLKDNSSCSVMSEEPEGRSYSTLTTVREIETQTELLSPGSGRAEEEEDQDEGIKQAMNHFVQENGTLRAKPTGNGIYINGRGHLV
In words: cell-based or functional assay.

Numbering of substitutions follows the chain as printed.

By koff is commonly meant a measure of how fast the partners let go of each other. Higher therefore signals fast dissociation. For orientation: kon means the rate constant with which the complex forms. Read a high kon as faster complex formation.

B1: Enfortumab (antibody, human IgG1, kappa, V domains shown)
VH: EVQLVESGGGLVQPGGSLRLSCAASGFTFSSYNMNWVRQAPGKGLEWVSYISSSSSTIYYADSVKGRFTISRDNAKNSLSLQMNSLRDEDTAVYYCARAYYYGMDVWGQGTTVTVSS
VL: DIQMTQSPSSVSASVGDRVTITCRASQGISGWLAWYQQKPGKAPKFLIYAASTLQSGVPSRFSGSGSGTDFTLTISSLQPEDFATYYCQQANSFPPTFGGGTKVEIKR
notes: also called control antibody Enfortumab
With B1, the binding result in test [1] is “no binding (tested: 10 µg/ml)”.

B2: 42D20 hz10 (antibody, V domains shown)
VH: QVQLQESGPGLVKPSETLSLTCTVSGFSLIDYGVSWIRQPPGKGLEWIGVIWGDGKIYYNSVLKSRVTISKDNSKSQVSLKLSSVTAADTAVYYCAKQGGLLFYAMDYWGQGTLVTVSS
VL: DIVMTQSPDSLAVSLGERATINCKSSQSLLNSYSQKNYLAWYQQKPGQPPKLLIYFASTRESGVPDRFSGSGSGTDFTLTISSLQAEDVAVYYCQQHYNTPFTFGAGTKLELKR
notes: Humanized
For B2, the binding result in test [1] is “no binding (tested: 10 µg/ml)”. For the same molecule, in test [2], the koff was 0.000946 s⁻¹ and the kon was found to be 831000 M⁻¹ s⁻¹. Moreover, in test [3], the “Endocytosis efficiency (%)” value was 52.7%.

B3: 42D20 hz63 (antibody, V domains shown)
VH: B2 VH with D54G
VL: B2 VL with S32T, P49S, G74E, V89L, Y93F
notes: Humanized
Take B3: the binding result in test [1] is “no binding (tested: 10 µg/ml)”. Also, in test [2], the koff worked out at 0.00157 s⁻¹ and the on-rate (kon) amounted to 873000 M⁻¹ s⁻¹.

These data come from patent US20230265183A1 (MABWELL SHANGHAI BIOSCIENCE, published 2023).
